Measurements taken from US6503881B2 (priority 1996, dated 2003).

Assays:
[1] = tested on: bacteria tolerant to the antibiotic agent; details: Vancomycin in combination with MBI 26; organisms of Table 18
[2] = format: in vivo; details: iv single dose, Swiss CD-1 mice

Compound | tolerance (MBC:MIC ratio) [1] | dose at which all subjects die [2] [mg/mL]
CN[C@H](CC(C)C)C(=O)N[C@H]1C(=O)N[C@@H](CC(N)=O)C(=O)N[C@H]2C(=O)N[C@H]3C(=O)N[C@H](C(=O)N[C@H](C(=O)O)c4cc(O)cc(O)c4-c4cc3ccc4O)[C@H](O)c3ccc(c(Cl)c3)Oc3cc2cc(c3O[C@@H]2O[C@H](CO)[C@@H](O)[C@H](O)[C@H]2O[C@H]2C[C@](C)(N)[C@H](O)[C@H](C)O2)Oc2ccc(cc2Cl)[C@H]1O [Vancomycin] | overcomes the tolerance | 
I L K K W P W W P W R R K [MBI 11CN] |  | 8
